Experimental data reported in PubChem BioAssay AID602314 (ICCB-Longwood Screening Facility, Harvard Medical School, 2012).
This is a selection; strong and weak results do not stand in their true shares. The source made the active and inactive calls. Rule as the data show it: active = inhibition above about 30% (passing the limit was not always enough); inactive = the rest.

tested on: MgrA (MarR family transcriptional regulator), Staphylococcus aureus Newman; assay: S. aureus MgrA activity modulators, primary screen, biochemical, S. aureus Newman, fluorescence polarization (AID 602314); conditions: MgrA-DNA binding, active compounds read high, concentration not given here;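 also: 0% = protein plus DNA without compound and 100% = DNA alone without protein; higher means less MgrA bound to DNA so lower polarization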

SMILES	inhibition
CN(CCCl)CCCl	inactive: -1.25%
